From patent publication US20260384432A1, “SUBSTITUTED DIHYDROPYRROLO[3,4-D]PYRIMIDINE COMPOUNDS AND THEIR USE IN TREATING MEDICAL CONDITIONS” (published 2026) come the findings set out here.

Protein sequences, listed by entry. Tags and fused reporters are not part of them.
UniProt P08485, whole entry: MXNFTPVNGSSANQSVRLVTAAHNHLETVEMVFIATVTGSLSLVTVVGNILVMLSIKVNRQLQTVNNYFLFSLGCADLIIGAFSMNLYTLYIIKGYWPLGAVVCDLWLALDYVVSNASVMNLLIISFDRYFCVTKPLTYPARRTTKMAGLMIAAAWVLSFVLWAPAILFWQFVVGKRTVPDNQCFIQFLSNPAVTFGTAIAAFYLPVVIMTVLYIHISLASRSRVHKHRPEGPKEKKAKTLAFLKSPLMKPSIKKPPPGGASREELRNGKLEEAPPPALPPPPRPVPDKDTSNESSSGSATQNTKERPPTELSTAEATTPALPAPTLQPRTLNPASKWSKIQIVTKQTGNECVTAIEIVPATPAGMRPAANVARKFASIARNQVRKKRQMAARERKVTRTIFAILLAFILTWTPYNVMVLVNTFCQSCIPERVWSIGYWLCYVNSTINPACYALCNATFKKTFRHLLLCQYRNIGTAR
UniProt P08173, whole entry: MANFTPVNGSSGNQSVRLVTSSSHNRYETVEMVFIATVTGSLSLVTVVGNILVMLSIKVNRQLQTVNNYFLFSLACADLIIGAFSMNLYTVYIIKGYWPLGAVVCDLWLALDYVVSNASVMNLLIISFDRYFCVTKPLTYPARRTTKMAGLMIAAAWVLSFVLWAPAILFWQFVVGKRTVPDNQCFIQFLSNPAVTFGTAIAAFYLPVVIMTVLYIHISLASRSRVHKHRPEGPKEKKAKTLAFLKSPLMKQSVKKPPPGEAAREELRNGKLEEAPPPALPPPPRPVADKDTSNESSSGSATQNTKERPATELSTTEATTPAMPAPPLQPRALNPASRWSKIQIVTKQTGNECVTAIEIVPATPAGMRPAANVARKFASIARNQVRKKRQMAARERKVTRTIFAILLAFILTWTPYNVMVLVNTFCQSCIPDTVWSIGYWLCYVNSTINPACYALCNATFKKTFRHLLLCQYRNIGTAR

In one assay the target is Rat M4 (rM4 receptor) (Rattus norvegicus, UniProt P08485). Put plainly: Rat M4 PAM pERK assay (CHO cells expressing rM4, TR-FRET). The settings on record: read-out: Rat M4 PAM pERK EC50, PAM mode, EC20 of acetylcholine (10 nM final), 5 mins at 37 °C. How it is done: (§1) Part I—Experimental Procedures for Human and Rat M4 PAM pERK Assay
(§2) Chinese hamster ovary (CHO) cells expressing either hM4 or rM4 receptors were frozen in assay ready vials (5×10^6 cells/vial) after bulking-up in culture. The day before an assay, vial(s) were thawed and cells seeded in 384 well white proxiplates at 1000/well for hM4 cells and at 2000/well for rM4 cells, in 10 µL of growth media (Hams/F 12 with glutainax and 1000 FCS) and incubated overnight at 37 °C/500 CO2.
(§3) On the following morning, the growth media was removed by ‘flicking out’ over a bin, patting the inverted plate onto tissue, and then replacing with 10 μL of wash media (Hams/F 12 with glutamax and 8 mM HEPES, NB: serum free). Then, the wash media was removed in the same way and replaced with 8 μL/well of the serum free media. Plates were then re-incubated for a further 4 hours at 37 °C/5% CO2.
(§4) Compounds for testing were solubilized to 10 mM in DMSO and compound addition plates, consisting of ten-point concentration response curves (CRC) in duplicate points (10 μM top concentration, ½ log dilution series), were prepared by acoustic dispensing and the compound management group.
(§5) After the 4-hour incubation in serum free media, a 4 μL aliquot of the 3× compound solution containing an EC2O of acetylcholine (10 nM final concentration) was added to the cell plate using a 384 well plate to plate transfer. Then, the plate lid was replaced, and the cells incubated for 5 mins at 37 °C/5% CO2. Following this final incubation, all cellular processes were stopped by the addition of 4 μL/well of lysis and blocking buffer and plates were incubated for 30 minutes at RT on an orbital shaker (gentle setting). Then, a final addition of 4 μL/well of antibody detection mix, containing both the Europium-Cryptate (donor) and d2 (acceptor) tagged detection components, was added followed by a further 2-hour incubation at RT, and then the plate was read using a TR-FRET (time resolved fluorescence resonance energy transfer) based protocol.
In general terms: TR-FRET usually uses a lanthanide donor and a delayed reading to cut background.

For a further assay, the target named is Human M4 (hM4 receptor) (Homo sapiens, UniProt P08173). The experiment in a line: Human M4 PAM pERK assay (CHO cells expressing hM4, TR-FRET). The note with it: read-out: Human M4 PAM pERK EC50, PAM mode, EC20 of acetylcholine (10 nM final), 5 mins at 37 °C. As for the experimental part:
as §1, §2, §3, §4, §5

The target in a further assay is Human M4 receptor (Homo sapiens, UniProt P08173). Put plainly: M4 GTPγS PAM assay (35S-GTP binding to membranes of CHO-K1 cells stably expressing human M4 receptor). The settings on record: read-out: Human M4 PAM GTPγS EC50, PAM mode, EC20 acetylcholine (40 nM for human M4), GDP 0.1 uM, 1 hour at room temperature. As for the experimental part:
Part II—Experimental Procedures for M4 GTPyS PAM Assay
The M4 GTPyS PAM method was used. Membranes were prepared for GTPgS binding assays from CHO-K1 cells stably expressing human M4 receptor. Briefly, cells were grown in 5-layer cell culture flasks. Cells were washed with 50 mL of PBS and then dissociated with 0.05% trypsin. Dissociated cells were then collected by centrifugation at 650×g for 8 minutes at 4 °C. Pellets were washed again in PBS by centrifugation and resuspended in 30 mL of 20 mM HEPES, 10 mM EDTA, pH 7.4. After sitting on ice for 30 min, membranes were collected by centrifugation at 50000×g for 15′ at 4 °C, resuspended in 30 mL of 20 mM HEPES, 0.1 mM EDTA, pH 7.4 and collected again by centrifugation. Pellets were then washed twice by centrifugation in 30 mL of 20 mM HEPES, pH 7.4, and stored at −80 °C until the day of the assay. On the day of the assay, pellets were thawed on ice and resuspended in 1 mL of 20 mM HEPES, pH 7.4, 10 mM MgCl2, 100 mM NaCl using dounce homogenization. Membrane protein concentration is determined by BCA protein assay (Promega, Madison, WI) according to Promega guidelines.
On the day of the assay, serial dilutions of test PAM compounds were brought up in assay buffer (20 mM HEPES, 10 mM MgCl2, 100 mM NaCl) at 4× final assay concentration. […] of membrane homogenates (containing 5 mg of membrane protein) were prepared in assay buffer supplemented with GDP at 4× final assay concentration (final assay concentration of GDP is 5 uM for M2 and 0.1 uM for M4) and dispensed into 96 well polypropylene, U-bottom Greiner plates. 25 ml of vehicle or test PAM compound at 4× of final assay concentration diluted in the assay buffer were added to membrane and plates are incubated for 10-15 minutes at room temperature with gentle shaking. Then, […] of EC20 acetylcholine in assay buffer at 4× final assay concentration was added to assay plates (EC20 final assay concentrations was 40 nM for human M4).
Plates were then incubated, with shaking, for an additional 10-15 minutes. 25 mL of 0.4 nM ^35S-GTP (Perkin Elmer, Waltham, MA) in assay buffer was added to assay mixtures. The binding reaction is left on the shaker for 1 hour at room temperature. Membranes in assay reactions were then transferred to GF/C filter plates (Unifilter, Perkin Elmer) and washed three times using a FilterMate Harvester (Perkin Elmer) with cold assay buffer containing no GDP. Filter plates were then dried at 40 °C overnight followed by the addition of […] of Beta Plate Scintillation liquid. Plates are top and bottom sealed before being read on TopCount scintillation counter (Perkin Elmer, Waltham, MA).

Take `COc1nc(C#N)nc2c1C(C)N(C(=O)CC1CC1c1cc(F)cc(F)c1)C2` (centres unmarked): the EC50 (as a rule, the concentration that produces a half-maximal response) at Rat M4 (rM4 receptor) was 0.1 to 0.5 µM; on Human M4 (hM4 receptor) it was below 0.1 µM; on Human M4 receptor, below 0.1 µM.
For `COc1nc(C#N)nc2c1C(C)N(C(=O)CC1CC1c1ccnc(C(F)(F)F)c1)C2` (centres unmarked), the results for the 50% effective concentration (EC50) at Rat M4 (rM4 receptor), at Human M4 (hM4 receptor) and on Human M4 receptor were 0.5 to 2 µM, below 0.1 µM and 0.1 to 0.5 µM, respectively.
Turning to `Cc1nc2c(c(OC3CC3)n1)CN(C(=O)CC1CC1c1cccnc1)C2` (single isomer, unassigned), the 50% effective concentration (EC50) at Rat M4 (rM4 receptor), on Human M4 (hM4 receptor) and at Human M4 receptor was above 2 µM each time.
For the compound `Cc1nc2c(c(NC3CC3)n1)CN(C(=O)CC1CC1c1cccnc1)C2` (single isomer, unassigned) [I-3], on Human M4 (hM4 receptor), the EC50 was above 2 µM.
`Cc1nc2c(c(NC3CC3)n1)CN(C(=O)CC1CC1c1cccnc1)C2` (single isomer, unassigned) [I-4]: the values for the EC50 on Rat M4 (rM4 receptor) and on Human M4 (hM4 receptor) were above 2 µM and 0.5 to 2 µM, respectively.
For the compound `COc1nc(C)nc2c1CN(C(=O)CC1CC1c1cccnc1)C2` (single isomer, unassigned) [I-5], the EC50 at Human M4 (hM4 receptor) and at Human M4 receptor was above 2 µM in each case.
`COc1nc(C)nc2c1CN(C(=O)CC1CC1c1cccnc1)C2` (single isomer, unassigned) [I-6]: the concentration giving a half-maximal response (EC50) at Rat M4 (rM4 receptor) is above 2 µM; on Human M4 (hM4 receptor) it was 0.1 to 0.5 µM; at Human M4 receptor it was above 2 µM.
In the case of `COc1nc(C#N)nc2c1C(C)N(C(=O)CC1CC1c1cc(F)cc(F)c1)C2` (single isomer, unassigned) [I-8], the EC50 on Rat M4 (rM4 receptor), on Human M4 (hM4 receptor) and on Human M4 receptor was above 2 µM throughout.
For `COc1nc(C#N)nc2c1C(C)N(C(=O)CC1CC1c1cc(F)cc(F)c1)C2` (single isomer, unassigned) [I-9], the concentration giving a half-maximal response (EC50) was 0.1 to 0.5 µM on Rat M4 (rM4 receptor), below 0.1 µM at Human M4 (hM4 receptor) and below 0.1 µM on Human M4 receptor.
Regarding `COc1nc(C#N)nc2c1C(C)N(C(=O)CC1CC1c1ccnc(C(F)(F)F)c1)C2` (single isomer, unassigned) [I-11], the EC50 on Rat M4 (rM4 receptor) was above 2 µM; at Human M4 (hM4 receptor) it was above 2 µM; at Human M4 receptor it was 0.5 to 2 µM.
Take `COc1nc(C#N)nc2c1C(C)N(C(=O)CC1CC1c1ccnc(C(F)(F)F)c1)C2` (single isomer, unassigned) [I-12]: the EC50 on Rat M4 (rM4 receptor) is 0.1 to 0.5 µM; at Human M4 (hM4 receptor) it was below 0.1 µM; on Human M4 receptor it was below 0.1 µM.
